Key:
JAK2 [1] = target: T1, JAK2 (Homo sapiens, UniProt O60674, I682F); assay: Target degradation (Western Blot) in MHH-CALL-4 cells, JAK2; type: cell-based; details: 100 nM PROTAC at 24 h
T1 construct: endogenous in cells; host or cells: MHH-CALL-4

Protein sequences, listed by entry. Tags and fused reporters are not part of them.
UniProt O60674, whole entry I682F: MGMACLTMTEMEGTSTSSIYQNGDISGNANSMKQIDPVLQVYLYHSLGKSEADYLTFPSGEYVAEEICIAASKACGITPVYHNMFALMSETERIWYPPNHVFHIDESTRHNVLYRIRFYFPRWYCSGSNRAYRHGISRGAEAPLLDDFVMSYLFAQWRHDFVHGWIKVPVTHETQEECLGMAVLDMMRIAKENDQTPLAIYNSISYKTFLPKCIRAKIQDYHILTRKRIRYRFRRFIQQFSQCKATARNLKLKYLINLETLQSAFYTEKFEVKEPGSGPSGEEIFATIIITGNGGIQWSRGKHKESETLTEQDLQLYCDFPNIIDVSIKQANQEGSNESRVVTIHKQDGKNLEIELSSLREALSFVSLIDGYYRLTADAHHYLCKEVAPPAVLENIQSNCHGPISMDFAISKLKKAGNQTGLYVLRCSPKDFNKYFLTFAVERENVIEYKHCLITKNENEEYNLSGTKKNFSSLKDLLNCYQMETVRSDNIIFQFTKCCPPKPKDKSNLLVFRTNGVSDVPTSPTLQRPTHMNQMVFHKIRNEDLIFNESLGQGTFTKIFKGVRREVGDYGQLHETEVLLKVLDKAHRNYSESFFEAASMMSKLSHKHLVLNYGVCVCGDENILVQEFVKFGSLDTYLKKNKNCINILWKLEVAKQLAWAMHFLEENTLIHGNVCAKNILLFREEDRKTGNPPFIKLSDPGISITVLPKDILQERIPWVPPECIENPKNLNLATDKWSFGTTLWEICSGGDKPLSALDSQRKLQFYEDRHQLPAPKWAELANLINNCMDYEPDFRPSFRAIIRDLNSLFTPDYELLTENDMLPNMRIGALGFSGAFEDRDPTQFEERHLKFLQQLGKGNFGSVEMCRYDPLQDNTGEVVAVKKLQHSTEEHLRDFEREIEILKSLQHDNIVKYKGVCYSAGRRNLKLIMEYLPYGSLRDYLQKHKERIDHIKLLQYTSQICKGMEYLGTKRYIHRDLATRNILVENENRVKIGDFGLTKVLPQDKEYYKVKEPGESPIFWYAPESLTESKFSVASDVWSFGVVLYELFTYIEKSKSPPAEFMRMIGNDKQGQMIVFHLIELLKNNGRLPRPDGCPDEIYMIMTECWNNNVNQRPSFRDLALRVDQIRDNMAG

[2] = tested on: Human CD45+ leukemic cells from patient derived xenografts (PDX); assay: Ex vivo cytotoxicity (MTT) in PDX leukemic cells; details: FIG. 6A
JAK2 [3] = target: T2, JAK2 (Homo sapiens, UniProt O60674); assay: KdELECT Kd measurement (KINOMEscan platform), JAK2; type: binding; details: read-out: Kd to JAK family kinases, JAK2
T2 construct: purchased Eurofins DiscoveRx

SMILES	Target Degradation (Western Blot) JAK2 (JAK2 [1])	also measured
CCS(=O)(=O)N1CC(CC#N)(n2cc(-c3nc(Nc4ccc(C(=O)NCCCCNc5cccc6c5C(=O)N(C5CCC(=O)NC5=O)C6=O)cc4)nc4[nH]ccc34)cn2)C1 (stereo not shown) [Compound 6]	3 (3 = Strong (>60% degradation at 24 h))	
N#CC[C@H](C1CCCC1)n1cc(-c2ncnc3[nH]ccc23)cn1 [Ruxolitinib, ruxolitinib, reference compound]		cytotoxicity in PDX cells ex vivo [2]: not
CCS(=O)(=O)N1CC(CC#N)(n2cc(-c3nc(Nc4ccc(C(=O)NCCN5CCN(c6ccc7c(c6)C(=O)N(C6CCC(=O)NC6=O)C7=O)CC5)cc4)nc4[nH]ccc34)cn2)C1 (stereo not shown) [Compound 8]	3 (3 = Strong (>60% degradation at 24 h))	
CCS(=O)(=O)N1CC(CC#N)(n2cc(-c3ncnc4[nH]ccc34)cn2)C1 [Baricitinib, baricitinib, reference compound]		Kd (JAK2 [3]): 0.092 nM

Source: patent publication US12624038B2, “Molecules and methods related to treatment of uncontrolled cellular proliferation” (ST. JUDE CHILDREN'S RESEARCH HOSPITAL, priority 2019, dated 2026)
